{
  "source": "patent US8669065B1",
  "about": "“Methods for identifying molecules that modulate lipid binding sites of ion channels” (priority 2011, dated 2014)",
  "test": "solubility of phosphatidic acid and short-chain analog in water",
  "settings": "native long acyl chains",
  "from_the_text": "Most native lipids have long fatty acyl side chains rendering them insoluble and difficult to work with in an aqueous environment.",
  "data": [
    {"substance": "phosphatidic acid", "values": [
      {"measurement": "solubility in water", "value": "insoluble"}
    ]}
  ]
}
